Series [1] in a line: Blood to plasma partitioning. It is filed as in vitro ADME. The settings on record: human, whole blood, pH 7.4, human whole blood, 37 °C; read-out: B/P (whole blood to plasma partitioning ratio).
The target of the next series is CYP2C19 (Homo sapiens, UniProt P33261). The settings on record: microsomes.
In a further series the target is CYP2D6 (Homo sapiens, UniProt P10635). The settings on record: microsomes.
The target in a further series is CYP2C9 (Homo sapiens, UniProt P11712). The settings on record: microsomes.
A short description of series [2]: Bidirectional permeability across Caco-2 cell monolayers. The settings on record: human.

Amino acid sequences for entries named in this document (tags omitted).
UniProt P33261, whole entry: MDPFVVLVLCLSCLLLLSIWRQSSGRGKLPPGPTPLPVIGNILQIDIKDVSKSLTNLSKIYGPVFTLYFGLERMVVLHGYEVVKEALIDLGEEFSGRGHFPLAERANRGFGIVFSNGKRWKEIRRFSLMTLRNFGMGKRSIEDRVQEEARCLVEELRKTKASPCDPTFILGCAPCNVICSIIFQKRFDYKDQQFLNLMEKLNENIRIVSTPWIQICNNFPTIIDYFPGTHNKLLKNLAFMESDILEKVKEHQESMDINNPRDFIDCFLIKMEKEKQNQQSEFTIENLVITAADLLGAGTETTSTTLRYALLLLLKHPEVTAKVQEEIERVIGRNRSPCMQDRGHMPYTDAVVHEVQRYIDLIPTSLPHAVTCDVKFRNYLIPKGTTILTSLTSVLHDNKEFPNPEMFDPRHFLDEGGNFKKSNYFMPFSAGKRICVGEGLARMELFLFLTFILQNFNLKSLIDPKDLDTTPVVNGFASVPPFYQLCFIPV
UniProt P10635, whole entry: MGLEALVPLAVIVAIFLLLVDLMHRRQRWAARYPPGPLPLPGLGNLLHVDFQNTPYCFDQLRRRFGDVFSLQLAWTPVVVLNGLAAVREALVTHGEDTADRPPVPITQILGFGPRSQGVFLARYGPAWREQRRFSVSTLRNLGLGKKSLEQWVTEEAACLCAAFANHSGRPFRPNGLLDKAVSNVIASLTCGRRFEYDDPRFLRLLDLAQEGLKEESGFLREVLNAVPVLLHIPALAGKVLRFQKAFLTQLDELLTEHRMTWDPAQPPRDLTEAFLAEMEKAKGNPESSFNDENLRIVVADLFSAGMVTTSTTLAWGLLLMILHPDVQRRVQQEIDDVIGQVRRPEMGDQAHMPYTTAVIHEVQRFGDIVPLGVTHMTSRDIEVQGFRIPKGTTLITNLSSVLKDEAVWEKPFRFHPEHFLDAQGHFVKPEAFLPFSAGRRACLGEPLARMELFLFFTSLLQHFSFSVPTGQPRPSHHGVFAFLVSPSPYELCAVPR
UniProt P11712, whole entry: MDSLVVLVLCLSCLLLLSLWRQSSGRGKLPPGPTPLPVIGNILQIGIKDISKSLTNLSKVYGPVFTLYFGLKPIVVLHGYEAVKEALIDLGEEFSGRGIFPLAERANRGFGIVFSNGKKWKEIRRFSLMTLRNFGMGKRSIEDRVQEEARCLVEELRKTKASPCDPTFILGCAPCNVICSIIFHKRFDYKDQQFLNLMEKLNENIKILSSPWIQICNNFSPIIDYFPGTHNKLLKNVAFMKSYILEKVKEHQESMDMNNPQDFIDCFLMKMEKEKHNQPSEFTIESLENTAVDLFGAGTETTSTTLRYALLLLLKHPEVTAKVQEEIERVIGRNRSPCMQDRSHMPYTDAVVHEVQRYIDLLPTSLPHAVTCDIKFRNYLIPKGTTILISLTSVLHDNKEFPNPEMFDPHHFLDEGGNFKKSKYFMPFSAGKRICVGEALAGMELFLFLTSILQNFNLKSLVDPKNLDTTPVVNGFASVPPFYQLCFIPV

Data on one compound can be found in paper PMC6941357, “An in vitro toolbox to accelerate anti-malarial drug discovery and development” (Malaria Journal, 2020).

In general, efflux ratio refers to a quotient of directional permeabilities that is used to spot active efflux. In the case of `CC(C)(N)CNC(=O)C[C@H]1CC[C@]2(CC1)OO[C@]1(O2)C2CC3CC(C2)CC1C3` [OZ277, Arterolane], the blood plasma ratio at 1000 ng/mL in series [1] is 1.1 ± 0.1. Moreover, on CYP2C19, the “CYP2C19 % inhibition at max conc” value is given as “nmi”. In addition, the “CYP2D6 % inhibition at max conc” value on CYP2D6 was “nmi”. Also, the “CYP2C9 % inhibition at max conc” value on CYP2C9 is “nmi”. The efflux ratio in series [2] came to 1.7.
